Assay results: US10426818B2, “Method and pharmaceutical composition for use in the treatment of diabetes” (INSERM (INSITUT NATIONAL DE LA SANTE ET DE LA RECHERCHE …, priority 2015, dated 2019)

Test system: overweighed healthy volunteers
Conditions: 9 and 30 nmol/kg intravenous infusion
Excerpt: Two groups of 8 male, overweighed (BMI 25-30 kg/m^2) healthy volunteers were included in this study.

(pyr1)-Apelin-13
influence on QTc interval: did not influence | influence on blood pressure: did not influence | influence on heart rate: did not influence | side effects in relation with drug administration: No side effect
